These are literature values, as cited in PMC8302504, “Efficacy of Fenfluramine and Norfenfluramine Enantiomers and Various Antiepileptic Drugs in a Zebrafish Model of Dravet Syndrome” (Neurochemical Research, 2021).

For data set [1], the target named is serotonin uptake. Also noted: method as in earlier work. As to conditions: 34 (Rothman et al.); read-out: Ki values for uptake inhibition, 5-HT; cited from earlier work.
The subject of data set [2] is 5-HT transporter proteins. Also noted: method as in earlier work. As to conditions: 34 (Rothman et al.); read-out: EC50 values for release, 5-HT; cited from earlier work.

Regarding `CCN[C@@H](C)Cc1cccc(C(F)(F)F)c1` [(+)-FFA], the inhibition constant (Ki) (commonly the equilibrium dissociation constant of an inhibitor or competing ligand from its target) in data set [1] was 150 ± 5 nM. Moreover, in data set [2], the EC50 (as a rule, the concentration at which the effect is half-maximal) was 51.7 ± 6.1 nM.
As for `CCN[C@H](C)Cc1cccc(C(F)(F)F)c1` [(−)-FFA], the inhibitory constant (Ki) in data set [1] was 714 ± 31 nM. Moreover, in data set [2], the 50% effective concentration (EC50) was 147 ± 19 nM.
